Values of other authors in US6700032B1, “Wound care management” (Leatherite Pty Limited, priority 1996, dated 2004).

For “2,4,4′-trichloro-2′-hydroxy diphenyl ether [Triclosan]”, the “solubility in organic solvents” value (many organic solvents) is listed as “highly soluble” and the solubility in water (water) is listed as “poorly soluble”.
